ChEMBL document CHEMBL4359929, “Piperidine and piperazine inhibitors of fatty acid amide hydrolase targeting excitotoxic pathology” (Bioorg Med Chem, 2019)

Chains of the proteins cited; added tags and fusions are not shown.
UniProt O00519, whole entry, looked up: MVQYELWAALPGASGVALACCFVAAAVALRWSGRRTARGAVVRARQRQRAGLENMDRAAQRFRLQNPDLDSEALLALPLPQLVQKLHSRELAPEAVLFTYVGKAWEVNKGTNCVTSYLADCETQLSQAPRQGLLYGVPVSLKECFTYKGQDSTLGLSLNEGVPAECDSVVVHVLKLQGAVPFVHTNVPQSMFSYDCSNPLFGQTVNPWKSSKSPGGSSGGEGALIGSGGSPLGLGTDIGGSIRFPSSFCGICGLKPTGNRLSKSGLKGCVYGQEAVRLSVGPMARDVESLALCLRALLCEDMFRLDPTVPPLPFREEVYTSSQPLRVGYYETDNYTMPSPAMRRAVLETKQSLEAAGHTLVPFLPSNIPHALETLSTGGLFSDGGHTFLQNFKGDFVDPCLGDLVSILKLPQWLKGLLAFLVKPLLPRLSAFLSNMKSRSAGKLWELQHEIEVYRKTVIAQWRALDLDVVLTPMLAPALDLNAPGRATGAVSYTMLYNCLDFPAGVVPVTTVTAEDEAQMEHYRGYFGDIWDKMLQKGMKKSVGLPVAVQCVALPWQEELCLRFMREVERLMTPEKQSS
UniProt Q99685, whole entry, looked up: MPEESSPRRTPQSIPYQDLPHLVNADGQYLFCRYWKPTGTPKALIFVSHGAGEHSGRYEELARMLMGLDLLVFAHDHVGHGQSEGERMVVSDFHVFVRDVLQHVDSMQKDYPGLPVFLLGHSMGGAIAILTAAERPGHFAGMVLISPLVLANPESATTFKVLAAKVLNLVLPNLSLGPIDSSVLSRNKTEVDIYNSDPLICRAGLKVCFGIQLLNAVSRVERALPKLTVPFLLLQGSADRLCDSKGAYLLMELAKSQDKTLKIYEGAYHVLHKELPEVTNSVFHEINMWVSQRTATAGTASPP
UniProt P97612, whole entry, looked up: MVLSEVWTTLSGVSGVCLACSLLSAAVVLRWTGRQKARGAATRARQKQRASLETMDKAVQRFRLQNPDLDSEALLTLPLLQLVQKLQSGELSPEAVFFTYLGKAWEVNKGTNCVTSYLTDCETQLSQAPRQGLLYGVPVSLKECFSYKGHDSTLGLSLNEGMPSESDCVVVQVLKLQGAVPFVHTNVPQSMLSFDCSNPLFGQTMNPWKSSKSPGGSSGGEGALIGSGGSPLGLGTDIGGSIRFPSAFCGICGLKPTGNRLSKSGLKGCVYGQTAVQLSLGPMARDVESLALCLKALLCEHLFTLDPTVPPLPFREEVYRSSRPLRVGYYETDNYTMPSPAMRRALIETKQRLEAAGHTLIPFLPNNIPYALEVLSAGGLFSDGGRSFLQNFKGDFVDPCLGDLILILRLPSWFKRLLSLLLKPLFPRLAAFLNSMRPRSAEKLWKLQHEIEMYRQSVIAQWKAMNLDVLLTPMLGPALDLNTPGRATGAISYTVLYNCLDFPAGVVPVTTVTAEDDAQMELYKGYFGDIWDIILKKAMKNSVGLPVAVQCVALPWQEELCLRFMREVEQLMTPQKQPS

Assays:
[1] = Stability in mouse plasma assessed as half life; assay type: ADME, cell-free
How it was run: (§1)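 Stability assessed as half-life in human, rat and mouse plasma and gastric fluid, and in human, rat and mouse liver microsomal preparations.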

[2] = biological target: Fatty-acid amide hydrolase 1 (Homo sapiens, UniProt O00519); assay: Inhibition of human recombinant MBP-tagged FAAH expressed in Escherichia coli cells using AAMCA as substrate incubated for 15 mins followed by substrate addition and measured after every 20 mins for 4 hrs by fluorescence based assay
Monoglyceride lipase = Monoglyceride lipase (Homo sapiens, UniProt Q99685); assay: Inhibition of human recombinant His-tagged MGL expressed in Escherichia coli BL21 DE3 cells using AHMMCE as substrate preincubated with enzyme for 15 mins followed by substrate addition and measured after every 15 mins for 3 hrs by fluorescence based assay
[3] = Stability in mouse liver microsomes assessed as half life; assay type: ADME, Microsome; how it was run: as §1
[4] = Stability in mouse gastric fluid assessed as half life; assay type: ADME, tissue-based; details: in vivo, Gastric juice; how it was run: as §1
[5] = Stability in human liver microsomes assessed as half life; assay type: ADME, Microsome; how it was run: as §1
[6] = Stability in rat plasma assessed as half life; assay type: ADME, cell-free; how it was run: as §1
[7] = Stability in human plasma assessed as half life; assay type: ADME, cell-free; how it was run: as §1
[8] = Stability in human gastric fluid assessed as half life; assay type: ADME, tissue-based; details: simulated gi fluid, Gastric juice; how it was run: as §1
[9] = biological target: Fatty-acid amide hydrolase 1 (Rattus norvegicus, UniProt P97612); assay: Inhibition of rat recombinant His/GST-tagged FAAH expressed in Escherichia coli cells using AAMCA as substrate incubated for 15 mins followed by substrate addition and measured after every 20 mins for 4 hrs by fluorescence based assay
[10] = Stability in rat gastric fluid assessed as half life; assay type: ADME, tissue-based; details: in vivo, Gastric juice; how it was run: as §1
[11] = Stability in rat liver microsomes assessed as half life; assay type: ADME, Microsome; how it was run: as §1

O=C(Oc1cncc(N2CCS(=O)(=O)CC2)c1)N1CCC(c2ccc(F)cc2)CC1
t1/2 [1]: > 60 min
IC50 [2]: 4.9 nM
IC50 (Monoglyceride lipase): > 1000 nM
t1/2 [3]: 15 to 25 min
t1/2 [4]: > 60 min
t1/2 [5]: 15 to 25 min
t1/2 [6]: > 60 min
t1/2 [7]: > 60 min
t1/2 [8]: > 60 min
IC50 [9]: 7.1 nM
t1/2 [10]: > 60 min
t1/2 [11]: 15 to 25 min
